The results in this text go back to patent publication US20040002117A1, “Specific inhibitors of NFAT activation by calcineurin and their use in treating immune-related diseases” (priority 1998, published 2004).

For assay [1], the target named is calcineurin binding to NFAT1 (Homo sapiens, UniProt Q08209). Kind of assay: 125I-calcineurin binding to GST-NFAT1(1-400) immobilized on glutathione-Sepharose beads. The conditions noted are these: 125I-labelled calcineurin 14 nM, 30 min at 4° C., read-out: IC50 for inhibition of the binding of calcineurin to NFAT1. The method, then:
(§1) ^125I-labelled calcineurin (14 nM, −7×10^5 cpm) was incubated for 30 min at 4° C. with GST-tagged NFAT1 N-terminal domain (GST NFAT1(1-400)) that had been immobilized on glutathione-Sepharose™ beads (Pharmacia Biotech, Piscataway, N.J.), in the absence or presence of different concentrations (1 μM to 100 μM) of wild type 13-mer peptide, wild type 26-mer peptide, or CM2 mutant 26-mer peptide. At the end of the incubation, the glutathione Sepharose beads with bound NFAT1-calcineurin complexes were washed on 5 μm hydrophilic Durapore PVDF filters (Millipore Corporation, Bedford, Mass.) to remove unbound calcineurin, and NFAT1-bound calcineurin was quantitated using a gamma counter. Both peptides incorporating the wild type sequence […] (SEQ ID NO:17) inhibited the binding of calcineurin to NFAT1.

Assay [2] deals with calcineurin binding to NFAT4 (Homo sapiens, UniProt Q08209). Kind of assay: 125I-calcineurin binding to GST-tagged N-terminal domain of NFAT4 (residues 1-400). The following applies: GST-NFAT4 (residues 1-400), read-out: IC50 for inhibition of NFAT4 calcineurin binding. As for the experimental part:
as §1
(§2) The […] (SEQ ID NO:17) sequence of NFAT1 is highly conserved in NFAT2, but only partially conserved in NFAT4 which has a […] (SEQ ID NO:20) sequence. NFAT1, NFAT2 and NFAT4 constitute the group of NFAT members expressed in immune cells. The inhibitory effect of the […] peptides, 13-mer and 26-mer, of NFAT1 on the binding of calcineurin to NFAT1, NFAT2 and NFAT4 was tested. […]

Assay [3] has as its target calcineurin binding to NFAT2 (Homo sapiens, UniProt Q08209). Kind of assay: 125I-calcineurin binding to GST-tagged N-terminal domain of NFAT2 (residues 1-418). The conditions noted are these: GST-NFAT2 (residues 1-418), read-out: IC50 for inhibition of NFAT2 calcineurin binding. The method, then:
as §1, §2

Assay [4] deals with calcineurin binding to GST-NFAT1 (Homo sapiens, UniProt Q08209). The assay is described as follows: binding of activated calcineurin to GST-NFAT1(1-415), glutathione-Sepharose collection and Western blotting. As for the experimental part: FIGS. 5A-5C illustrate that the optimised VIVIT peptide is a potent inhibitor of the interaction between NFAT and calcineurin. In FIG. 5A, the protein-protein interaction between calcineurin and NFAT was assayed by incubating 200 nM calcineurin that had been activated with 600 nM calmodulin and 2 mM CaCl2 with 3 μg GST or GST-NFAT1(1-415) as described (F J Garcia-Cozar et al (1998) J Biol Chem 273, 23877-23883). NFAT1-bound calcineurin was collected by incubation with glutathione-Sepharose resin and detected by Western blotting with a polyclonal antibody to the calcineurin A chain (C Loh et al (1996) J Biol Chem 271, 10884-10891). The peptides SPRIEIT-13 or SPAIAIA-25 (J Aramburu et al (1998) Mol Cell 1, 627-637) or the VIVIT 16-mer peptide were included in the assay where indicated, in the amounts indicated above each lane (in μM).

The target in assay [5] is T1, calcineurin (Homo sapiens, UniProt Q08209). Kind of assay: calcineurin phosphatase assay with phosphorylated RII peptide, Malachite green detection. It is filed as biochemical. The conditions noted are these: 100 μM INCA compound or 100 μM VIVIT peptide; 6.8 nM calcineurin, 15 min at 25° C. As for the experimental part: The phosphatase activity of calmodulin-activated calcineurin was assayed photometrically using phosphorylated RII peptide as substrate and Malachite green for detection (BIOMOL Research Laboratories). […] DMSO concentration was kept constant in all samples. Release of free phosphate, calibrated to known standards, was 12-18 pmol/min under the conditions described and was not affected by the presence of dimethyl sulfoxide (DMSO), VIVIT peptide, INCA2, or any of the other 10 INCA compounds described in Example 18. The data are plotted as a bar graph in FIG. 11B, which also includes data for two of the negative control compounds from the chemical library (NEG-1 and NEG-2).

In assay [6] the target is T2, dephosphorylation of NFAT by calcineurin (Homo sapiens, UniProt Q08209). Kind of assay: calcineurin-mediated dephosphorylation of HA-NFAT1(1-460)-GFP in HeLa cell lysates. Also on record: host or cells: Exogenous calcineurin added to extracts of HeLa (A4, A14) or HEK-293 (A8) cells expressing the NFAT1 fusion. It is filed as biochemical. The method, then:
Lysates of HeLa cells stably expressing HA-NFAT1(1-460)-GFP (hereinafter “HA-NFAT1”) were incubated with 200 nM calcineurin plus 600 nM calmodulin and 2 mM CaCl2 for 30 min at 30 C. in buffer as described (J Aramburu et al (1998) Mol Cell 1, 627-637). The phosphorylation status of NFAT was evaluated by SDS-polyacrylamide gel electrophoresis and Western blotting with anti-HA antibody 12CA5. For these experiments, reaction conditions were chosen that produced only limited dephosphorylation of NFAT (FIG. 5B, lane 2) in order to maximize the sensitivity of the assay in detecting inhibition. The SPRIEIT-13 (lanes 3-6), VIVIT 16-mer (lanes 7-9), and SPAIAIA-25 (lane 10) peptides were again included in the assay where indicated, in the amounts indicated above each lane (in μM). […] Both the VIVIT peptide and the […] peptide were effective at inhibiting NFAT dephosphorylation.

In assay [7] the target is T1, calcineurin. Kind of assay: calcineurin phosphatase activity with 32P-labelled phospho-RII peptide as substrate. In kind it is biochemical. The conditions noted are these: peptide 100 μM. As for the experimental part: Inhibition of NFAT dephosphorylation by VIVIT peptide was not due to occlusion of the catalytic site of calcineurin. This point had previously been established for the […] peptide (see Example 4), and was tested here by measuring calcineurin phosphatase activity with ^32P-labelled phospho-RII peptide as substrate (J Aramburu et al (1998) Mol Cell 1, 627-637). SPRIEIT-13, SPAIAIA-25, and VIVIT 16-mer peptides were included in the incubation as indicated. The results are plotted in FIG. 5C as radiolabel released from ^32P-phospho-RII peptide (counts per minute×10^−3). Where peptide was present, its concentration (μM) is indicated in FIG. 5C; CsA/cyclophilin A complexes (CsA/Cyp) were present at 10 μM. […] In contrast, CsA/cyclophilin A complexes inhibited calcineurin phosphatase activity by approximately 95% in this assay, consistent with the established mode of action of CsA/cyclophilin A complexes, which is interference with calcineurin activity against all its peptide and protein substrates.

Assay [8] addresses T2, dephosphorylation of NFAT by calcineurin. Kind of assay: in vitro dephosphorylation of NFAT1 in C1.7W2 T cell lysates by recombinant calcineurin. In kind it is biochemical. The following applies: 500 nM calcineurin, 600 nM calmodulin, 30 minutes at 30° C.; INCA2 at micromolar concentrations.

Regarding `CC[C@H](C)[C@H](NC(=O)[C@H](CCCNC(=N)N)NC(=O)[C@@H]1CCCN1C(=O)[C@H](CO)NC(=O)[C@@H]1CCCN1C(=O)CNC(=O)[C@@H](N)CO)C(=O)N[C@@H](CCC(=O)O)C(=O)N[C@H](C(=O)N[C@H](C(=O)N1CCC[C@H]1C(=O)N[C@@H](CO)C(=O)N[C@@H](Cc1c[nH]cn1)C(=O)O)[C@@H](C)O)[C@@H](C)CC` [wild type 13-mer peptide], the concentration for half-maximal inhibition (IC50) in assay [1] is roughly 15 µM.

For `CC[C@H](C)[C@H](NC(=O)[C@H](CCCNC(=N)N)NC(=O)[C@@H]1CCCN1C(=O)[C@H](CO)NC(=O)[C@@H]1CCCN1C(=O)CNC(=O)[C@H](CO)NC(=O)[C@H](C)NC(=O)CNC(=O)[C@H](C)NC(=O)[C@@H]1CCCN1C(=O)[C@@H](N)CCCCN)C(=O)N[C@@H](CCC(=O)O)C(=O)N[C@H](C(=O)N[C@H](C(=O)N1CCC[C@H]1C(=O)N[C@@H](CO)C(=O)N[C@@H](Cc1c[nH]cn1)C(=O)N[C@@H](CCC(=O)O)C(=O)N[C@@H](CC(C)C)C(=O)N[C@@H](CCSC)C(=O)N[C@@H](CCC(N)=O)C(=O)N[C@@H](C)C(=O)NCC(=O)NCC(=O)N[C@@H](Cc1ccc(O)cc1)C(=O)O)[C@@H](C)O)[C@@H](C)CC` [wild type 26-mer peptide], the 50% inhibitory concentration (IC50) in assay [2], in assay [3] and in assay [1] was roughly 15 µM in each case.

For MAGPHPVIVITGPHEE [VIVIT 16-mer peptide], the “inhibition of the binding of activated calcineurin to GST-NFAT1” value in assay [4] (200 nM calcineurin, 600 nM calmodulin, 2 mM CaCl2, peptide amounts as in FIG. 5A) is listed as “inhibited”. Besides, the “inhibition of calcineurin binding to GST-NFAT1” value in assay [4] (peptide 100 μM) is reported as “completely blocks”. Besides, in assay [5], the “release of free phosphate from RII phosphopeptide” value is “not affected”. The “inhibition of NFAT dephosphorylation” value in assay [6] (200 nM calcineurin, 600 nM calmodulin, 30 min at 30 C., peptide amounts as in FIG. 5B) is “effective”. Besides, the “inhibition of NFAT1 dephosphorylation” value in assay [6] (peptide 100 μM) was “completely blocks”. The “inhibition of calcineurin phosphatase activity towards the RII phosphopeptide” value in assay [7] was “did not inhibit”. The “dephosphorylation of NFAT by calcineurin in vitro” value in assay [8] is reported as “blocked”.
